The values below come from patent publication US20250243263A1 (VOYAGER THERAPEUTICS, published 2025).

Sequences of proteins named here, by UniProt entry; tags and fusion partners are left off. A line that says so, or that is headed by a name, gives the form on record, which may keep a tag or linker.
UniProt P10636, other isoform, or with tags, fused parts or gaps limits assumed: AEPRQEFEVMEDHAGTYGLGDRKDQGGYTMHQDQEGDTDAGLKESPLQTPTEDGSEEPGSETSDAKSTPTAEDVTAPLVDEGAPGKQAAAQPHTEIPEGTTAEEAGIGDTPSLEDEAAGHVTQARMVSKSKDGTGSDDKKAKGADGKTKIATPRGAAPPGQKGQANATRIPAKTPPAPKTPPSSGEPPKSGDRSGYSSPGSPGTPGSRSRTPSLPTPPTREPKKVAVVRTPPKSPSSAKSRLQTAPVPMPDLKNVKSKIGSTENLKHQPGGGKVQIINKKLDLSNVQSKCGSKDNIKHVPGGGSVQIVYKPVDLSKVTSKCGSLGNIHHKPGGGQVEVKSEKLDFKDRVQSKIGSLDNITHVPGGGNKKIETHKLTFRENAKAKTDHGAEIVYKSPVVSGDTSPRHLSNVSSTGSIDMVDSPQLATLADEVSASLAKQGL

The target of one assay is T1, iPHF (UniProt P10636, in part).
T1 construct: also called iPHF tau
The assay can be described thus: BLI (Octet), antibody on biosensor tip, iPHF in solution. As for the experimental part: Anti-human tau antibodies were assessed for affinity for iPHF by Octet (ForteBio, Menlo Park, CA) analysis. A set of recombinant human IgG1 antibodies were prepared with clone-specific variable domain pairs selected from those presented in Table 1 and human IgG1 constant domains. Candidate antibodies were immobilized on biosensor tips (ForteBio) in kinetic buffer (ForteBio). Biosensor tips were then washed before introduction of a solution of iPHF in kinetic buffer for analysis of association and dissociation with candidate antibodies.

In assay [1] the target is enriched paired helical filament tau protein (ePHF; sarkosyl insoluble tau) (human, UniProt P10636). The assay can be described thus: direct ELISA, ePHF coated. As for the experimental part:
A set of recombinant human IgG1 antibodies were prepared with clone-specific variable domain pairs selected from those presented in Table 1 and human IgG1 constant domains. These candidate antibodies were analyzed for binding to ePHF and specificity for ePHF over wild type tau by direct ELISA.
For direct ePHF and wildtype tau ELISA, plates were first coated with ePHF or wild type tau. Antigen solutions were prepared in PBS and 50 μL were pipetted into each well. Plates were covered and incubated for one hour at 37° C. or overnight at 4° C. Plates were then washed and blocked by addition of 150 μl of blocking buffer to each well and incubated one hour at room temperature. Plates were then washed before addition of serially diluted candidate antibody samples prepared in blocking buffer. Detection of candidate antibody binding was carried out by washing plates and adding a solution of enzyme-labeled secondary antibody in blocking buffer to each well. Secondary antibody binding was detected by addition of substrate and spectrophotometric analysis of resulting reaction product.
(In general: ELISA stands for enzyme-linked immunosorbent assay.)

A further assay concerns the target T2, AC04 peptide (human, phosphothreonine at T212 and T217 of tau (peptide positions 4, 9)).
T2 construct: Tau-derived peptide with an N-terminal Cys
T2 peptide: CSRTPSLPTPPTREPK
In words: one point ELISA. An excerpt:
(§1) One-point ELISA was used to determine differential binding based on the individual phosphorylation patterns of each peptide. OD values (450 nm) were collected (as shown in Table 13), where a stronger positive signal is shown as a higher OD value, which is indicative of increased binding.

For a further assay, the target named is T3, wtTau C2 (human).
T3 peptide: PTREPKKVA
The assay can be described thus: one point ELISA.
Text: as §1

The next assay concerns the target T4, tPeptide 5 (204-222) (human).
T4 peptide: GTPGSRSR[pT]P[pS]LP[pT]PPTRE
In words: one point ELISA.
Text: as §1

Where no end group is shown, it is not given here. [ ]: non-standard residue; d: D form. pT = C[C@@H](OP(=O)(O)O)[C@H](N)C(=O)O; pS = N[C@@H](COP(=O)(O)O)C(=O)O

B1: VY008 (antibody, V domains shown)
VH: QVQLVQSGAEVKKPGASVKVSCKASGYTFTGYYMHWVRQAPGQGLEWMGWINPNSGGTNYAQKFQGRVTMTRDTSISTAYMELSRLRSDDTAVYYCAGDAFDIWGQGTMVTVSS
VL: [in this place about 100 residues]FGGGTKVEIK
By Kd is commonly meant the equilibrium constant for the complex coming apart. A high value points to weaker binding. As usually defined, the EC50 is the concentration needed to bring the measured effect to its halfway point. A lower EC50 goes with a more potent agent. B1 yielded a dissociation constant Kd with iPHF of 2.3 nM. In addition, in assay [1], the EC50 is 0.27 nM. The “OD (450 nm)” value in the assay with AC04 peptide worked out at 2.96 OD450; in the assay with wtTau C2, 0.125 OD450; with tPeptide 5 (204-222), 2.87 OD450.
